Values of other authors, collected in patent US20220394981A1, “MICRONUTRIENT FORMULATIONS THAT CONTROL PLANT PATHOGENS” (priority 2021, published 2022).

Details: cited from earlier work

In the case of `O=C(O)CN(CCN(CC(=O)O)CC(=O)O)CC(=O)O` [EDTA], the “LogK Fe2+ (stability constant)” value is listed as 14.3.
